Data on 83 compounds can be found in PubChem BioAssay AID463082 (The Scripps Research Institute Molecular Screening Center, 2010).

Chains of the proteins cited; added tags and fusions are not shown. Lines headed by an entry give the natural chain unless they say otherwise; changes in a name come on top.
UniProt Q13093: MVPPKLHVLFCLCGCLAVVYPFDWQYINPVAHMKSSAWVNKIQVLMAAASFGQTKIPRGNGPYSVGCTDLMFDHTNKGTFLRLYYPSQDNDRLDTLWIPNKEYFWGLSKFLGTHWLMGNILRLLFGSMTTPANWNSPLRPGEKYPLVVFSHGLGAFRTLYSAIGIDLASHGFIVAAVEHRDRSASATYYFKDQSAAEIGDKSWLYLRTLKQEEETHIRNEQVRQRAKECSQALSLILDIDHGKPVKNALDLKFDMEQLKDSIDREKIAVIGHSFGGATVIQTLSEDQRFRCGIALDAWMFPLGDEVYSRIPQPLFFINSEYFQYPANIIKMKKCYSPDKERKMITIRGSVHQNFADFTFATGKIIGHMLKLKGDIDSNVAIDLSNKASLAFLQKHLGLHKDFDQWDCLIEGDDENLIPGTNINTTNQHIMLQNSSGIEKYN

This is a selection; strong and weak results do not stand in their true shares. The source made the active and inactive calls.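 How the source made its calls: active means inhibition above the mean inhibition across the screen plus 3 SD (cut at about 25% in these data); inactive means the rest.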

Usually inhibition stands for the relative decrease from the control value, in per cent.

For the assay, the target named is Platelet-activating factor acetylhydrolase (Homo sapiens) (UniProt Q13093). In words: inhibition of plasma PAF acetylhydrolase – biochemical, fluorescence polarization, human, primary screen (AID 463082).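 Further: inhibitors block binding of the rhodamine activity-based probe so polarization drops; 0% = enzyme with DMSO and 100% = wells lacking pPAFAH.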 As to conditions: recombinant pPAFAH, FP-rhodamine probe fluorescence polarization; at 3.39 µM; active compounds read high.
Turning to `O=C(OC1CN2CCC1CC2)c1ccccc1` (stereo not drawn), the inhibition was inactive: -7.26%.
As for `Cc1ccc(OP(=O)(Nc2ccccn2)Oc2ccc(C)cc2)cc1`, the inhibition is inactive: 5.68%.
In the case of `CC(=O)NC(SC(=S)N(CC(C)C)CC(C)C)C(Cl)(Cl)Cl` (stereo not drawn), the inhibition was inactive: 0.36%.
The figure for `COC(=O)c1cc2c(s1)N=C(c1ccccc1)N(C)P2(=O)N1CCOCC1` (stereo not drawn) is inactive: 3.7%; for `CCOC(=O)NC(Sc1ccccc1)C(Cl)(Cl)Cl` (stereo not drawn) it is inactive: 7.3%; for `Cc1ccc(NP(=O)(Oc2cccc(C)c2)Oc2cccc(C)c2)nc1` it is inactive: 1.3%.
Take `c1ccc(-c2nn[nH]n2)c(-c2nn[nH]n2)c1`: the inhibition was inactive: -2.55%.
For the compound `O=C(NC1CCS(=O)(=O)C1)NP(=S)(Oc1ccccc1)Oc1ccccc1` (stereo not drawn), the inhibition was inactive: 1.36%.
As for `CCNC(=S)/N=C(\N)N[N+](=O)[O-]`, the inhibition is inactive: 3.89%.
As for `CN(C(=O)Cc1ccccc1)[C@@H]1CC[C@]2(CCCO2)C[C@H]1N1CCCC1`, the inhibition is inactive: 2.52%.
For `CCOP1(=S)c2c(C)nn(CCC#N)c2N=C(c2ccc(F)cc2)N1C` (stereo not drawn), the inhibition is inactive: 3.8%.
Take `N#CCCN(C(=O)COC(=O)C(O)(c1ccccc1)c1ccccc1)c1ccc(F)cc1`: the inhibition is inactive: -0.95%.
Turning to `CN(C(=O)Cc1ccc(Cl)c(Cl)c1)[C@H]1CC[C@@]2(CCCO2)C[C@@H]1N1CCCC1`, the inhibition is inactive: 4.39%.
The figure for `O=[N+]([O-])c1ccc2c(c1)nnn2O` is inactive: 3.44%; for `CN(C)C(=O)c1cc([N+](=O)[O-])cc2c1-c1c(cc([N+](=O)[O-])cc1[N+](=O)[O-])C2=O` it is active: 33.5%.
As for `NC(=O)Nc1ccc([As](=O)(O)O)cc1`, the inhibition was inactive: 0.82%.
With `O=C(O)COc1ccc([As](=O)(O)O)cc1[N+](=O)[O-]`, the inhibition was inactive: 7.94%.
`Nc1ccccc1[As](=O)(O)c1ccccc1`: the inhibition is inactive: -2.52%.
In the case of `O=P(Nc1nccs1)(Oc1ccccc1)Oc1ccccc1` it was inactive: -3.57%; in that of `O=P(Nc1nccs1)(c1ccccc1)c1nc2ccccc2s1` (stereo not drawn), inactive: 4.03%.
In the case of `CCOP1(=S)c2c(C)nn(CCC#N)c2N=C(c2ccccc2F)N1C` (stereo not drawn) it was inactive: 2.27%.
For `CS(=O)(=O)c1cc([N+](=O)[O-])c2no[n+]([O-])c2c1`, the inhibition was inactive: 2.17%.
Take `CCOP(=O)(Nc1cccc2ccccc12)OCC`: the inhibition is inactive: 6.61%.
For the compound `COc1cc(C2NCCC3(OCCO3)C2(C)C)cc(OC)c1OC` (stereo not drawn), the inhibition is inactive: -0.3%.
Regarding `Nc1cccc2c([As](=O)(O)O)cccc12`, the inhibition is active: 43.1%.
Turning to `Cc1ccc(NCCc2c([N+](=O)[O-])cc([N+](=O)[O-])cc2[N+](=O)[O-])cc1`, the inhibition was active: 27.5%.
`CCCOP(=S)(Nc1nc(N)cc(=O)[nH]1)OCCC`: the inhibition is inactive: 1.99%.
`Cc1cccc(OCC(=O)OC2CN3CCC2CC3)c1` (stereo not drawn): the inhibition is inactive: 5.2%.
The figure for `O=[As](O)(c1cccc(O)c1)c1cccc(O)c1` is inactive: 3.39%; for `O=C(OC1CN2CCC1CC2)c1ccc(Cl)cc1` (stereo not drawn) it is inactive: 0.14%.
Consider `CS(=O)(=O)c1ccc(Cl)c(NC(=O)COC(=O)C(O)(c2ccccc2)c2ccccc2)c1`, for which the inhibition is inactive: 3.77%.
In the case of `O=[As](O)(O)c1cccnc1` it was inactive: -3.55%; in that of `COc1cc(C(=O)NCC2(N3CCOCC3)CCCCC2)cc(Cl)c1OC(C)C`, inactive: 2.51%.
The figure for `CN(C(=O)Cc1ccc(Cl)c(Cl)c1)[C@@H]1CCCC[C@H]1N1CCCC1` is inactive: -0.4%; for `CC(C)/C=N\N=C(\N)N[N+](=O)[O-]` it is inactive: -1.19%; for `CC1(CBr)Cn2c(nc3ccccc3c2=O)S1` (stereo not drawn) it is inactive: 2.48%.
For the compound `O=[As](O)(c1ccccc1Br)c1ccccc1Br`, the inhibition is inactive: -2.18%.
In the case of `COc1ccccc1CNC(=O)COC(=O)C(O)(c1ccccc1)c1ccccc1`, the inhibition was inactive: -1.36%.
`CC(C)(C)C(=O)NC(Sc1ncccn1)C(Cl)(Cl)Cl` (stereo not drawn): the inhibition is inactive: -0.61%.
For the compound `Clc1n[nH]nc1-c1nn[nH][15n]1`, the inhibition is inactive: -0.06%.
Take `CCOP(=O)(NC(=NC(C)c1ccccc1)NC(C)c1ccccc1)OCC` (stereo not drawn): the inhibition is inactive: 2.39%.
On to `CCC1=CC2Cc3nc4ccc(Cl)cc4c(N)c3C(C1)C2` (stereo not drawn), for which the inhibition was inactive: 6.58%.
With `O=P1(Nc2ccccn2)COc2ccccc2OC1`, the inhibition is inactive: 1.72%.
Regarding `CCOP(=O)(Nc1ccc(C)cn1)OCC`, the inhibition is inactive: 0.62%.
The figure for `CN(CCCl)Cc1cc(Cl)c(NC2=NCCN2)c(Cl)c1` is inactive: 5.43%.
On to `Nc1cccc([As](=O)(O)c2ccccc2)c1`, for which the inhibition is inactive: -2.27%.
Take `O=[As](O)(c1cccs1)c1cccs1`: the inhibition was inactive: 0.77%.
For the compound `Cc1ccc(OCC(=O)OC2CN3CCC2CC3)cc1` (stereo not drawn), the inhibition is inactive: -2.65%.
Turning to `NS(=O)(=O)c1cccc(NC(=O)COC(=O)C(O)(c2ccccc2)c2ccccc2)c1`, the inhibition is inactive: 6%.
Turning to `O=P1(Nc2ccc(Br)cn2)COc2ccccc2OC1`, the inhibition is inactive: 4.11%.
In the case of `O=P1(Nc2ncccn2)COc2ccccc2OC1`, the inhibition is inactive: 1.82%.
Regarding `CN(C)C1(CNC(=O)c2ccc(S(C)(=O)=O)cc2)CCCCC1`, the inhibition is inactive: 0.14%.
Take `O=C(/C=C/c1ccccc1)OC1CN2CCC1CC2` (stereo not drawn): the inhibition is inactive: -2.43%.
Take `Cc1ccc(C(=O)OC2CN3CCC2CC3)cc1` (stereo not drawn): the inhibition was inactive: 6.4%.
On to `CC1CCC(C(C)C)C(OP(=O)(Nc2ccccn2)c2ccccc2)C1` (stereo not drawn), for which the inhibition is inactive: 3.84%.
In the case of `Cc1nn(-c2ccccc2)c2c1P(=O)(N1CCOCC1)N(C)C(c1ccccc1)=N2` (stereo not drawn), the inhibition is inactive: 4.2%.
For the compound `Cc1cc(SC(NC=O)C(Cl)(Cl)Cl)ncn1` (stereo not drawn), the inhibition is inactive: -3.72%.
As to `O=P(Nc1ccccn1)(c1cccc2ccccc12)c1cccc2ccccc12`, the inhibition was inactive: 11.1%.
For the compound `CCOC(=O)Nc1cccc([As](=O)(O)O)c1`, the inhibition is inactive: 1.74%.
Take `Cc1cc(SC(NC(=O)c2ccccc2)C(Cl)(Cl)Cl)nc(C(C)C)n1` (stereo not drawn): the inhibition was inactive: 5.12%.
In the case of `CCOC(=O)Nc1ccc([As](=O)(O)O)c(O)c1` it was inactive: 2.04%; in that of `CCC(C)N(CC(C)C)C(=S)SC(NC(C)=O)C(Cl)(Cl)Cl` (stereo not drawn), inactive: -0.07%; in that of `O=C(OC1CN2CCC1CC2)c1cccc([N+](=O)[O-])c1` (stereo not drawn), inactive: 0.03%.
On to `CCOC(=O)c1ccc(NC(=O)C(C)(CCl)SC)cc1` (stereo not drawn), for which the inhibition is inactive: -9.61%.
In the case of `O=C(Nc1ccncc1[N+](=O)[O-])c1ccc([N+](=O)[O-])cc1[N+](=O)[O-]` it was inactive: 6.34%.
The figure for `O=C(COc1ccccc1)OC1CN2CCC1CC2` (stereo not drawn) is inactive: 2.15%; for `COP1(=S)c2c(C)nn(CCC#N)c2N=C(c2ccc(F)cc2)N1C` (stereo not drawn) it is inactive: -1.2%.
Turning to `COc1ccc(N/C(=N/P(=O)(N2CCOCC2)N2CCOCC2)N2CCOCC2)cc1`, the inhibition was inactive: 0.32%.
With `COc1cc(I)ccc1[As](=O)(O)O`, the inhibition is inactive: 5.87%.
Turning to `COc1ccc2nc(NP(=O)(c3ccccc3)c3ccccc3)sc2c1`, the inhibition was inactive: 1.17%.
The figure for `Cc1c2c(nc3ccccc13)SC(C(Cl)Cl)C2` (stereo not drawn) is inactive: 0.44%; for `Cc1cc(=O)[nH]c(N[N+](=O)[O-])n1` it is inactive: 0.16%; for `O=C(OC1CN2CCC1CC2)C12CC3CC(CC(C3)C1)C2` (stereo not drawn) it is inactive: -1.23%.
In the case of `O=[N+]([O-])c1cc([N+](=O)[O-])c(-c2ccn[nH]2)s1` it was inactive: 10.6%; in that of `CC(C)NC(=O)NP(=O)(Oc1ccccc1)Oc1ccccc1`, inactive: -2.53%.
As to `CCN(CC)C(=S)SC(NC=O)C(Cl)(Cl)Cl` (stereo not drawn), the inhibition was inactive: -1.24%.
Consider `ClCCSc1nnc(-c2cccnc2)o1`, for which the inhibition was inactive: 4.35%.
For `CC(C)c1ccc(OP(=O)(Nc2ccccn2)Oc2ccccc2F)cc1` (stereo not drawn), the inhibition was inactive: -1.84%.
In the case of `Cc1ccc(OP(=O)(Nc2ccc([N+](=O)[O-])cn2)Oc2ccc(C)cc2)cc1`, the inhibition was inactive: -0.49%.
Take `Cc1ccc2nc3c(c(C)c2c1)CC(C(Cl)Cl)S3` (stereo not drawn): the inhibition is inactive: 4.7%.
The figure for `COc1cc(C(=O)NCC2(N3CCOCC3)CCCCC2)ccc1OCC(C)C` is inactive: 2.29%; for `C[As](=O)(O)c1cccc(C(=O)O)c1` it is inactive: 1.34%.
In the case of `O=[As](O)(c1ccc(O)cc1)c1ccccc1O`, the inhibition is inactive: -1.33%.
